Experimental data published in ChEMBL document CHEMBL3044733, “Synthesis of novel phosphorothioates and phosphorodithioates and their differential inhibition of cholinesterases” (2009).

Assay: Selectivity ratio of IC50 for horse serum butyrylcholinesterase to IC50 for electric eel acetylcholinesterase

Row | SMILES | Ratio IC50
1 | CCOP(=O)(OCC)SCc1ccc2ccccc2n1 | 15.7
2 | CCOP(=O)(OCC)SCCN1C(=O)c2ccccc2C1=O | 5.4
